This is a selection; strong and weak results do not stand in their true shares. Calls of active or inactive are those of the source.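 Rule for the calls: active = growth inhibition above 25% in both replicates, a cutoff set 3 SD above the mean; inconclusive = above 25% in only one replicate; inactive = the rest.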
Experiment: OD615 S. cerevisiae growth inhibition, permissive medium, pilot counter-assay, permissive growth control for S. cerevisiae lifespan shortening project (AID 705)
Details: OD615, 24 h, at 10 µM, stronger effect = higher value
How it was run: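 System: Engineered DeaD yeast | Buffer or medium: SC raffinose/galactose permissive medium | Incubation: Cells pre-grown 4 h, then 24 h compound exposure, 30 °C humidified | Measured by: Absorbance (optical density) at 615 nm | Read-out: Reduction in yeast growth (OD615)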

Row | Compound | growth inhibition
1 | COC(=O)c1cc2c(s1)N=C(c1ccccc1)N(C)P2(=O)N1CCOCC1 (stereo unspecified) | inactive: -6.42%

— PubChem BioAssay AID705 (SRMLSC, 2007)
